The target in the assay is 5-hydroxytryptamine receptor 2A (Rattus norvegicus, UniProt P14842).

The chains behind the UniProt entries cited, without tags or fusion partners.
UniProt P14842, whole entry: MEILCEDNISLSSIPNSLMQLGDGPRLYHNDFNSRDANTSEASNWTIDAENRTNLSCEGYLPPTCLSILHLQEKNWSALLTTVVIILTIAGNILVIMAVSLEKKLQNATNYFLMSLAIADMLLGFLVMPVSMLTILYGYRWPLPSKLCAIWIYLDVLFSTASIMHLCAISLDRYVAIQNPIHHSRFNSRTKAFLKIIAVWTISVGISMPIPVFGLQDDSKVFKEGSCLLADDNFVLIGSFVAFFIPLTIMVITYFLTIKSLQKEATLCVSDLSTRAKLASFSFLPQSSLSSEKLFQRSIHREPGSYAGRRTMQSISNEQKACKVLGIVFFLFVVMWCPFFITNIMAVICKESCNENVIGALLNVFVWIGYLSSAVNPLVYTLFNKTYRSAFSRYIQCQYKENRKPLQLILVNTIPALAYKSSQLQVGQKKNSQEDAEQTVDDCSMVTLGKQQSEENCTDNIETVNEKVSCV

Usually Ki stands for the equilibrium dissociation constant of an inhibitor or competing ligand from its target.

As to `O=C(CCCN1CCC2(CC1)C(=O)NCN2c1ccccc1)c1ccc(F)cc1` [8-[4-(4-fluorophenyl)-4-oxidanylidene-butyl]-1-phenyl-1,3,8-triazaspiro[4.5]decan-4-one], the affinity corresponds to a Ki of 0.43 nM.

The values above are taken from BindingDB's records for PubMed 8301575 (Institut De Recherches Servier, 1994).
